Data taken from ChEMBL document CHEMBL1938230, “6-Position optimization of tricyclic 4-quinolone-based inhibitors of glycogen synthase kinase-3β: discovery of nitrile derivatives with picomolar potency” (Bioorg Med Chem Lett, 2012).

System: MAP4K2 (germinal center kinase) (Homo sapiens)
Experiment: Inhibition of human GCK in HL-60 cells lysate assessed as reduction of labeling of acyl-phosphate ATP probe at 100 nM

Row | inhibition | Compound
1 | < 35% | C[C@H]1COc2c(NCCCc3ccccn3)c(F)c(N)c3c(=O)c(C#N)cn1c23
2 | < 35% | C[C@H]1COc2c(NCCCn3cccn3)c(F)c(N)c3c(=O)c(C(=O)O)cn1c23
